# Yeast mating assay 1: variants of the scFv Ab-14

The target is the same throughout: PDVDLGDISGINAS, from the HR2 region of SARS-CoV-2 spike.

Parent: Ab-14, a human scFv built as VH, a 15-residue (Gly4Ser)3 linker, VL. Only the CDRs of the light chain vary.
VH: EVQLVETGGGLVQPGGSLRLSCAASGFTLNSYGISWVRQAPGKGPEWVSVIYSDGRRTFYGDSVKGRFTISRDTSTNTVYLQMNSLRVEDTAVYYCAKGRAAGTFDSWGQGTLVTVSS
VL: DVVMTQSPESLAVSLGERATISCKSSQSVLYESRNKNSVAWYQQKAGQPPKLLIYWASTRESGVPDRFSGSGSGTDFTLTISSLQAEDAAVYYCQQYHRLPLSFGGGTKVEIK

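The starting antibody came from a phage panning campaign against this peptide. Variants in AAYL50 differ from the parent at up to three CDR positions; double and triple changes were sampled at random. The assay is AlphaSeq: two haploid yeast populations carry antibody and antigen on their surface. After mating in shaken culture at 30 °C for 16 h, diploids were selected and their barcode pairs sequenced. A regression on co-assayed BCL2-family reference pairs converts the normalised counts of each replicate to an apparent Kd. Each pool was mated in three replicate cultures.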

Substitutions are numbered in sequence along the VL above, starting at 1 (not Kabat).
All variants listed here change S103 of the VL, counted from its first residue.
The Kd shown is the geometric mean over detected replicates; a lower Kd is a better binder.
"no signal" marks a missing value. The strain was present, yet no cells mated with the target were sequenced in any replicate, which points to weak or no binding.
Parent in this assay: reference entry 4.4 nM, copy in this library 48 nM.

* S25E+A40N+S103C: 3.6 µM (1 of 3 replicates)
* A40E+R60G+S103T: no signal (0 of 3 replicates)
* S38K+L100I+S103I: no signal (0 of 3 replicates)
* A40K+S58E+S103R: 1.4 µM (1 of 3 replicates)
* R99C+S103F: no signal (0 of 3 replicates)
* S26M+Q27A+S103T: 35 nM (3 of 3 replicates)
* S33E+E61Y+S103T: 140 nM (3 of 3 replicates)
* Y31S+S33G+S103R: 52 nM (3 of 3 replicates)
* V29Q+S58I+S103V: 1.5 µM (1 of 3 replicates)
* S62Q+S103P: 2.3 nM (3 of 3 replicates)
* S28L+E61M+S103I: 130 nM (3 of 3 replicates)
* Y31I+S38C+S103N: 620 nM (3 of 3 replicates)
* S25E+H98C+S103Q: 440 nM (2 of 3 replicates)
* Y97N+P101M+S103N: no signal (0 of 3 replicates)
* Q27N+L102V+S103D: 82 nM (3 of 3 replicates)
* Q27K+S28G+S103D: 12 nM (3 of 3 replicates)
* S58P+Q95G+S103W: no signal (0 of 3 replicates)
* S38M+V39D+S103C: no signal (0 of 3 replicates)
* Q27V+R60C+S103Y: 1.5 µM (1 of 3 replicates)
* A40R+A57N+S103F: no signal (0 of 3 replicates)
* Q95L+S103R: no signal (0 of 3 replicates)
* S26D+N35C+S103G: 380 nM (3 of 3 replicates)
* S28I+P101H+S103H: 400 µM (1 of 3 replicates)
* Q27M+P101D+S103N: 27 µM (2 of 3 replicates)
* V29C+N35T+S103F: no signal (0 of 3 replicates)
* S25C+E61Q+S103V: 5.9 nM (3 of 3 replicates)
* A40L+P101Q+S103V: no signal (0 of 3 replicates)
* A40C+Q96G+S103Y: 4.2 µM (2 of 3 replicates)
* V29H+N35K+S103L: no signal (0 of 3 replicates)
* Y31W+P101F+S103M: 30 nM (3 of 3 replicates)
* Q27F+Q96P+S103P: no signal (0 of 3 replicates)
* Q96W+Y97D+S103Q: no signal (0 of 3 replicates)
* Y31H+Q95S+S103Q: 4.7 µM (3 of 3 replicates)
* L100E+S103M: no signal (0 of 3 replicates)
* V39K+S103R: no signal (0 of 3 replicates)
* S25F+N35F+S103F: 3.3 nM (3 of 3 replicates)
* S33K+S103W: 16 nM (3 of 3 replicates)
* V39P+L100N+S103I: 110 µM (2 of 3 replicates)
* S38W+A57I+S103C: 53 µM (1 of 3 replicates)
* S26K+V29W+S103M: 7.9 nM (3 of 3 replicates)
* S28I+R34M+S103N: 1.2 µM (3 of 3 replicates)
* T59P+L102I+S103T: no signal (0 of 3 replicates)
* R60L+L100T+S103F: 2.4 µM (3 of 3 replicates)
* K24A+A57M+S103N: no signal (0 of 3 replicates)
* V29C+T59S+S103L: 24 nM (3 of 3 replicates)
* L30Q+L100P+S103G: 600 nM (3 of 3 replicates)
* S26A+L100Q+S103L: 1.2 µM (1 of 3 replicates)

From the list, the first 3 with no signal in any replicate:

| changes | Kd (apparent) | seen in |
|---|---|---|
| A40E+R60G+S103T | no signal | 0 of 3 |
| S38K+L100I+S103I | no signal | 0 of 3 |
| R99C+S103F | no signal | 0 of 3 |

Nonspecific signal, from three strains lacking the peptide, appeared in 18% of pairings of library AAYL50, centred on 15 µM (5% of these signals below 970 nM); values are not corrected for it.

From the AlphaSeq antibody data of Engelhart et al. 2022 (doi:10.1038/s41597-022-01779-4), copy in the FLAb collection.